Legend:
Faah = molecular target: T1, Faah (Homo sapiens, UniProt O00519); assay: FAAH Inhibitor Screening Assay Kit (Faah); format: biochemical; conditions: target Faah; mean ± SD of three independent repeats, Bliss method, eight data points
T1 construct: purchased Cayman Chemical
Method: (§1) To validate the practicability of WES model, we randomly selected Enpp2, Faah, PTGS2, PPARG, and REN, the five inflammation-related targets, and predicted their direct ligand-target interactions. The 24 top-scoring (hybrid-WES) and commercially available drug-target interactions (Table 3) were tested by the ligand-binding assays.
(§2) Enpp2 (Autotaxin Inhibitor Screening Assay Kit), Faah (FAAH Inhibitor Screening Assay Kit), PTGS2 (COX Inhibitor Screening Assay Kit), PPARG (PPARγ Ligand Screening Assay Kit), and REN (Renin Inhibitor Screening Assay Kit) were purchased from Cayman Chemical, Ann Arbor, MI, USA. […] The activity of targets was detected according to manufacturer’s instructions. IC50 values were determined using the Bliss method according to the eight data points per drug. The same drug-target interaction was repeated independently three times to obtain a mean IC50 value and its standard deviation.

Chains of the proteins cited; added tags and fusions are not shown. Residues count along the entry.
UniProt O00519, whole entry: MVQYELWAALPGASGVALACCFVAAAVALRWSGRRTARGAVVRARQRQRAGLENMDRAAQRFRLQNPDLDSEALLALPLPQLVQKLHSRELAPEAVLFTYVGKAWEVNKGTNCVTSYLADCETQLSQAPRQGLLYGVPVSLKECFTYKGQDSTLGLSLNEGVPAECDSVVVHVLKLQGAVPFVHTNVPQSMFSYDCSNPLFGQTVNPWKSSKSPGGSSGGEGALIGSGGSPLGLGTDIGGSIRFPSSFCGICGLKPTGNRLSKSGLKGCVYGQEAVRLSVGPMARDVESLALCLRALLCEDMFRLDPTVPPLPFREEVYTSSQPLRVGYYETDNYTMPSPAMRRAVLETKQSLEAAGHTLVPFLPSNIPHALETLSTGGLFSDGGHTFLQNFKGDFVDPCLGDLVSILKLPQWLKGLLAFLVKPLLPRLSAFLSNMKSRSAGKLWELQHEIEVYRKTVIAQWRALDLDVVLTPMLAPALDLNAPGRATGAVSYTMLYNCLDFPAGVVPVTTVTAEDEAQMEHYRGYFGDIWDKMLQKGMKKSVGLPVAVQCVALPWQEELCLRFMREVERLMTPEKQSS
UniProt P00797, 67-406: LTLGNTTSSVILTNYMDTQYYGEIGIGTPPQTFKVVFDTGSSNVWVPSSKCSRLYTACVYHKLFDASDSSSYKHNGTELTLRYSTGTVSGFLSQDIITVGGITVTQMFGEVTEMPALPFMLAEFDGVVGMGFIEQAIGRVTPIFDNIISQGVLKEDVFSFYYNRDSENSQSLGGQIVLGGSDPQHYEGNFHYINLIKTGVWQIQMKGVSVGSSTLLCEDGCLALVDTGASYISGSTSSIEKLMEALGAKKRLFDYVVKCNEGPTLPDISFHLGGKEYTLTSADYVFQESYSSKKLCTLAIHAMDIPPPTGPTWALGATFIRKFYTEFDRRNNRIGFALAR

REN = molecular target: T2, REN (Homo sapiens, UniProt P00797); assay: Renin Inhibitor Screening Assay Kit (REN); format: biochemical; conditions: target REN; mean ± SD of three independent repeats, Bliss method, eight data points
T2 construct: purchased Cayman Chemical
Method: as §1, §2

IC50 (Faah): 223 ± 8.3 µM | IC50 (REN): 3.45 ± 4.8 µM
Substance: Pentagastrin (AWMDF)

Reference: publication PMC4496667, “Large-scale Direct Targeting for Drug Repositioning and Discovery” (Scientific Reports, 2015)
